## Yeast mating assay 1: variants of the scFv Ab-14

Values reported by Engelhart et al. 2022, doi:10.1038/s41597-022-01779-4 (FLAb copy).

Binding partner: SARS-CoV-2 spike HR2 peptide, sequence PDVDLGDISGINAS.

The variants keep the heavy chain, the linker and the frameworks of Ab-14 (scFv order VH, three GGGGS repeats, VL).
VH: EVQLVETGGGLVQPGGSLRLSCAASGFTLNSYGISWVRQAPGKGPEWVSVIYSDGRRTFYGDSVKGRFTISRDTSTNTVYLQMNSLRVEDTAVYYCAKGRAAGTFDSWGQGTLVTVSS
VL: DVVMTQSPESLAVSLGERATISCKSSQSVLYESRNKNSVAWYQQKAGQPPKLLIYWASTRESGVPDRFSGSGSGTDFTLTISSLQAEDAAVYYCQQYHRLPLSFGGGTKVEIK

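The parent was found by panning a naive human phage display library on the peptide. Library AAYL50 holds single substitutions and randomly drawn double and triple substitutions in the CDRs. In AlphaSeq, yeast of one mating type display the scFv and yeast of the other type display the target. Pairs that bind mate more often; barcode pairs of the diploids are counted by sequencing. A regression on co-assayed BCL2-family reference pairs converts the normalised counts of each replicate to an apparent Kd. Each pool was mated in three replicate cultures.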

Variants are written as CDR1, CDR2 and CDR3 of the light chain (limits as in the source). Parent: KSSQSVLYESRNKNSVA, WASTRES, QQYHRLPLS. Scale: log10 of Kd in nM, estimated from mating counts; low values are strong binders. "n.d." marks a missing value. The strain was present, yet no cells mated with the target were sequenced in that replicate, which points to weak or no binding. For reference, the parent read 0.65 as the reference entry and 1.68 as a member of this library.

{"CDR-L1": "KSSQSVLYESRNKNSVA", "CDR-L2": "WASTRES", "CDR-L3": "IQYHRRSLS", "log10 Kd (nM) by replicate": "5.93 n.d. n.d.", "control signals": "5 of 9 (4.02)"}
{"CDR-L1": "ISSQSVLYESRNKNSVA", "CDR-L2": "WASTRES", "CDR-L3": "QQYQRLPLS", "log10 Kd (nM) by replicate": "1.13 1.13 1.38", "control signals": "2 of 9 (4.54)"}
{"CDR-L1": "KSSQSVLYESLNKNSVA", "CDR-L2": "WTSTRES", "CDR-L3": "QQYHRLPLS", "log10 Kd (nM) by replicate": "0.51 0.76 0.69", "control signals": "3 of 9 (4.63)"}
{"CDR-L1": "KSSQSVLYEPRNKNIVA", "CDR-L2": "WAQTRES", "CDR-L3": "QQYHRLPLS", "log10 Kd (nM) by replicate": "n.d. 4.78 n.d.", "control signals": "1 of 9 (3.24)"}
{"CDR-L1": "KSSASVLYESRNKNSVA", "CDR-L2": "WACTRES", "CDR-L3": "GQYHRLPLS", "log10 Kd (nM) by replicate": "n.d. 5.32 4.19", "control signals": "3 of 9 (4.36)"}
{"CDR-L1": "KSSQSVLYESRNKNSVA", "CDR-L2": "WASTREE", "CDR-L3": "QQYHYLPLD", "log10 Kd (nM) by replicate": "n.d. 2.32 3.63", "control signals": "1 of 9 (5.14)"}
{"CDR-L1": "KSSQSTLYESRNKNSVA", "CDR-L2": "CASTRES", "CDR-L3": "QQYHRLPLS", "log10 Kd (nM) by replicate": "1.16 1.25 1.35", "control signals": "1 of 9 (2.26)"}
{"CDR-L1": "KSSQSVLYISRNKNSVA", "CDR-L2": "WASTRES", "CDR-L3": "QQYQRLPGS", "log10 Kd (nM) by replicate": "3.67 2.85 3.70", "control signals": "2 of 9 (4.22)"}
{"CDR-L1": "KSSQFVLYEDRNKNAVA", "CDR-L2": "WASTRES", "CDR-L3": "QQYHRLPLS", "log10 Kd (nM) by replicate": "0.89 1.16 1.03", "control signals": "2 of 9 (5.48)"}
{"CDR-L1": "KSSQSTLYESRNKNSVA", "CDR-L2": "WASKRES", "CDR-L3": "QQSHRLPLS", "log10 Kd (nM) by replicate": "n.d. n.d. 4.94", "control signals": "3 of 9 (3.60)"}
{"CDR-L1": "KSSESVLYESRAKNSVV", "CDR-L2": "WASTRES", "CDR-L3": "QQYHRLPLS", "log10 Kd (nM) by replicate": "n.d. 3.76 n.d.", "control signals": "0 of 9"}
{"CDR-L1": "KSSQSVKYESRNKNSVC", "CDR-L2": "VASTRES", "CDR-L3": "QQYHRLPLS", "log10 Kd (nM) by replicate": "n.d. n.d. 2.86", "control signals": "1 of 9 (5.22)"}
{"CDR-L1": "KSSGSVLYESRNKNSVA", "CDR-L2": "FASTRES", "CDR-L3": "QQTHRLPLS", "log10 Kd (nM) by replicate": "2.33 2.43 2.42", "control signals": "4 of 9 (3.92)"}
{"CDR-L1": "KSSQSVLYESRNKSSVA", "CDR-L2": "WASTRES", "CDR-L3": "QQEHRLPIS", "log10 Kd (nM) by replicate": "n.d. 4.54 3.55", "control signals": "3 of 9 (4.54)"}
{"CDR-L1": "KSSQSVLYESRNKNSVA", "CDR-L2": "WAVTKES", "CDR-L3": "QQYHRLPLS", "log10 Kd (nM) by replicate": "3.78 3.24 3.19", "control signals": "4 of 9 (3.42)"}
{"CDR-L1": "KSSQSVLYGSRNRNSVA", "CDR-L2": "WASTRES", "CDR-L3": "QQYHRLPLS", "log10 Kd (nM) by replicate": "1.22 1.34 1.55", "control signals": "0 of 9"}
{"CDR-L1": "KSSQSVLYESRNKNGVA", "CDR-L2": "YASTRES", "CDR-L3": "QQYHRLPLM", "log10 Kd (nM) by replicate": "2.54 2.53 2.59", "control signals": "1 of 9 (3.66)"}
{"CDR-L1": "KSSQSVLYKSRCKNSVA", "CDR-L2": "WASTRES", "CDR-L3": "QQRHRLPLS", "log10 Kd (nM) by replicate": "4.66 n.d. n.d.", "control signals": "1 of 9 (4.90)"}
{"CDR-L1": "KSSQSVLYESVNKNSVA", "CDR-L2": "WMSTRES", "CDR-L3": "QQYHRIPLS", "log10 Kd (nM) by replicate": "1.09 1.18 1.44", "control signals": "0 of 9"}
{"CDR-L1": "KSSQSVLYESRNDNSVA", "CDR-L2": "WAHTRES", "CDR-L3": "QTYHRLPLS", "log10 Kd (nM) by replicate": "n.d. n.d. n.d.", "control signals": "0 of 9"}
{"CDR-L1": "KSSQSVLYESRNKNSVI", "CDR-L2": "WASTRES", "CDR-L3": "QQYHRFPFS", "log10 Kd (nM) by replicate": "n.d. 3.60 n.d.", "control signals": "1 of 9 (4.15)"}
{"CDR-L1": "KSGQSVLTESRNINSVA", "CDR-L2": "WASTRES", "CDR-L3": "QQYHRLPLS", "log10 Kd (nM) by replicate": "n.d. n.d. n.d.", "control signals": "0 of 9"}
{"CDR-L1": "KSSKSVLYVHRNKNSVA", "CDR-L2": "WASTRES", "CDR-L3": "QQYHRLPLS", "log10 Kd (nM) by replicate": "1.03 1.14 1.18", "control signals": "1 of 9 (3.40)"}
{"CDR-L1": "KSSQSVLYEGRNKNSVA", "CDR-L2": "SASTRES", "CDR-L3": "QQYERLPLS", "log10 Kd (nM) by replicate": "-0.21 0.18 -0.06", "control signals": "5 of 9 (4.48)"}
{"CDR-L1": "KSSQSMLYESRNKNSPA", "CDR-L2": "WASTRES", "CDR-L3": "NQYHRLPLS", "log10 Kd (nM) by replicate": "3.38 n.d. n.d.", "control signals": "1 of 9 (3.40)"}
{"CDR-L1": "KSSQSVLYESRNKMSVA", "CDR-L2": "WASTRLS", "CDR-L3": "QQYHRLPHS", "log10 Kd (nM) by replicate": "2.25 1.79 2.15", "control signals": "3 of 9 (4.48)"}
{"CDR-L1": "KSSQSVLYESRNKRGVA", "CDR-L2": "SASTRES", "CDR-L3": "QQYHRLPLS", "log10 Kd (nM) by replicate": "-0.15 0.21 -0.09", "control signals": "3 of 9 (4.41)"}
{"CDR-L1": "CSSQSVWYESRNKNSVA", "CDR-L2": "WASTRES", "CDR-L3": "QQYHLLPLS", "log10 Kd (nM) by replicate": "n.d. 3.41 n.d.", "control signals": "0 of 9"}

4 of these entries, quoted again:

{"CDR-L1": "KSSQSTLYESRNKNSVA", "CDR-L2": "WASKRES", "CDR-L3": "QQSHRLPLS", "log10 Kd (nM) by replicate": "n.d. n.d. 4.94", "control signals": "3 of 9 (3.60)"}
{"CDR-L1": "KSSQSVLYKSRCKNSVA", "CDR-L2": "WASTRES", "CDR-L3": "QQRHRLPLS", "log10 Kd (nM) by replicate": "4.66 n.d. n.d.", "control signals": "1 of 9 (4.90)"}
{"CDR-L1": "KSSASVLYESRNKNSVA", "CDR-L2": "WACTRES", "CDR-L3": "GQYHRLPLS", "log10 Kd (nM) by replicate": "n.d. 5.32 4.19", "control signals": "3 of 9 (4.36)"}
{"CDR-L1": "KSSQSVLYESRNKNSVA", "CDR-L2": "WASTRES", "CDR-L3": "IQYHRRSLS", "log10 Kd (nM) by replicate": "5.93 n.d. n.d.", "control signals": "5 of 9 (4.02)"}

Nonspecific signal, from three strains lacking the peptide, appeared in 18% of pairings of library AAYL50, centred on 4.19 (5% of these signals below 2.99); values are not corrected for it. Also given: how often the same scFv was detected with the empty control strains, with their mean in brackets.